# Target: T1, CALC/RAMP receptor (Homo sapiens, UniProt O60896+P30988)
# T1 construct: host or cells: HEK-293
# T1 sequence (P30988 25-474): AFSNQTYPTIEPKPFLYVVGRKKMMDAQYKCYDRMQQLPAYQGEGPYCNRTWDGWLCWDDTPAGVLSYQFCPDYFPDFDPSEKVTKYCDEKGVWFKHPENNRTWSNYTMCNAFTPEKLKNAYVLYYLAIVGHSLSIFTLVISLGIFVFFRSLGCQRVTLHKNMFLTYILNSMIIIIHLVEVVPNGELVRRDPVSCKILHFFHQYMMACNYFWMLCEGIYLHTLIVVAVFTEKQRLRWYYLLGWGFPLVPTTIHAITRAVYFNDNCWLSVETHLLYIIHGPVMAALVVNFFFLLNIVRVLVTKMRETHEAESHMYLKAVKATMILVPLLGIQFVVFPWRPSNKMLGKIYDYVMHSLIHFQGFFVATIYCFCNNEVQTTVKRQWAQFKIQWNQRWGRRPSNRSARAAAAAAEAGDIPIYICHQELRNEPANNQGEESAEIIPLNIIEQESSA
# T1 sequence (O60896 24-148 partner): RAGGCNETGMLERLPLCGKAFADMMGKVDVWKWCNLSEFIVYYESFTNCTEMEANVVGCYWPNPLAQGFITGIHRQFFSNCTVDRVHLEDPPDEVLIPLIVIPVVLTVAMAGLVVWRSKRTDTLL
# Assay: Cell-based pramlintide activity assay (HEK-293 with pCALCR, pRAMP3, pCK53)
# Conditions: conditioned medium of pKR135/pKR146-transgenic HT-1080, SEAP reporter, 48 h, FIG. 9b
# Experimental: (b) Validation of functional pramlintide production. The culture supernatant of pKR135/pKR146-transgenic pramlintide-producing HT-1080 cultivated for 48 h in the presence of 100 μM linoleic acid was mixed at different percentages with DMEM and used to cultivate HEK-293 (co-)transfected with expression vectors encoding the pramlintide-specific receptors pCALCR, pRAMP3 and the corresponding reporter unit (pCK53; PCRE-SEAP-pA). Pramlintide-triggered SEAP expression was profiled after 48 h. medPcond (%)=pramlintide-containing conditioned medium, % pramlintide.
# In vitro activity of pramlintide was measured by (co-)transfecting HT-1080 with pKR135/pKR146 or pJWS17 (6 μg DNA, 800,000 cells, 10 cm Petri dish). […] Alternatively, pramlintide was quantified using the human amylin EIA ELISA kit (Phoenix Pharmaceuticals, Burlingame, USA) and pure pramlintide as standard (Feldan, Quebec, Canada). For quantification of pramlintide in mouse serum samples, 96-well plates were coated with 5 μg/mL (100 μL/well) rabbit polyclonal anti-human amylin (Amylin H-50, Santa Cruz Biotechnology, Santa Cruz, USA; cat. no. sc-20936, lot. no. 10303) in dilution buffer (PBS, 0.5% BSA, 0.01% Tween80, pH7.4) at 4° C. overnight. […] Reactions were stopped by addition of 2 M sulfuric acid (100 μL/well) and pramlintide was quantified at 450 nm using an Envision plate reader.
structure (smiles),measurement,value
CC[C@H](C)[C@H](NC(=O)[C@@H]1CCCN1C(=O)CNC(=O)[C@H](Cc1ccccc1)NC(=O)[C@H](CC(N)=O)NC(=O)[C@H](CC(N)=O)NC(=O)[C@H](CO)NC(=O)[C@H](CO)NC(=O)[C@H](Cc1c[nH]cn1)NC(=O)[C@@H](NC(=O)[C@H](CC(C)C)NC(=O)[C@H](Cc1ccccc1)NC(=O)[C@H](CC(N)=O)NC(=O)[C@H](C)NC(=O)[C@H](CC(C)C)NC(=O)[C@H](CCCNC(=N)N)NC(=O)[C@H](CCC(N)=O)NC(=O)[C@@H](NC(=O)[C@H](C)NC(=O)[C@@H]1CSSC[C@H](NC(=O)[C@@H](N)CCCCN)C(=O)N[C@@H](CC(N)=O)C(=O)N[C@@H]([C@@H](C)O)C(=O)N[C@@H](C)C(=O)N[C@@H]([C@@H](C)O)C(=O)N1)[C@@H](C)O)C(C)C)C(=O)N[C@@H](CC(C)C)C(=O)N1CCC[C@H]1C(=O)N1CCC[C@H]1C(=O)N[C@H](C(=O)N[C@@H](CC(N)=O)C(=O)N[C@H](C(=O)NCC(=O)N[C@@H](CO)C(=O)N[C@@H](CC(N)=O)C(=O)N[C@H](C(=O)N[C@@H](Cc1ccc(O)cc1)C(N)=O)[C@@H](C)O)C(C)C)[C@@H](C)O [pramlintide],capacity to activate target receptor and signaling cascades,activate its target CALC/RAMP receptor

# Reference: patent publication US10415054B2, “Designer circuit controlling diet-induced obesity” (ETH ZURICH, priority 2013, dated 2019)
